# Assay results from ChEMBL document CHEMBL4418496, “Inhibitors of crl4 ubiquitin ligase and uses thereof” (2014).
# Sequences of proteins named here, by UniProt entry; tags and fusion partners are left off.
# UniProt Q3TCH7, whole entry, looked up: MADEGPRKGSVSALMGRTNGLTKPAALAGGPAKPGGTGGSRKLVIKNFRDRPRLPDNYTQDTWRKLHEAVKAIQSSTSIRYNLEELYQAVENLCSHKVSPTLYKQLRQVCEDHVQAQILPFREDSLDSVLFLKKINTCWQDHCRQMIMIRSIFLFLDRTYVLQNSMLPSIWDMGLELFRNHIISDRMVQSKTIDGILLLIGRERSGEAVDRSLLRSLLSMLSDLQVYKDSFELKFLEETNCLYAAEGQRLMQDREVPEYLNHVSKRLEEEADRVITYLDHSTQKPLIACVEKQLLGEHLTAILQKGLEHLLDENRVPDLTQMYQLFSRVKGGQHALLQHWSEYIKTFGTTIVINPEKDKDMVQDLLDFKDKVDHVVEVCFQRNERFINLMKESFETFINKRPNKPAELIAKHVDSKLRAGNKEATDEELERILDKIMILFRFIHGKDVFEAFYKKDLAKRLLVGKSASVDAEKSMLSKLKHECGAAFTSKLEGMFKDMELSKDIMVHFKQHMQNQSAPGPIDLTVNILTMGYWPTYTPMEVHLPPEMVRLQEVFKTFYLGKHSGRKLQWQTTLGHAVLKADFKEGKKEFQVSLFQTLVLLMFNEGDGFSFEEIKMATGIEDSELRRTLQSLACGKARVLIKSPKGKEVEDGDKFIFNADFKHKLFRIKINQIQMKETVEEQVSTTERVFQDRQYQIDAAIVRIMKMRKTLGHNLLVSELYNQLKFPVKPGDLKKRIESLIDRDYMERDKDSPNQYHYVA
# The source made the active and inactive calls. The calls are words filed in the database; no cut-off is given here.
# Molecular target: Cullin-4A (Mus musculus) (UniProt Q3TCH7)
# Assay: Inhibition of CUL4A in mouse MEF cells stably expressing FL FLAG-tagged DDB2 assessed as reduction in F-DDB2 degradation incubated for 2 hrs before irradiated with 10 J/m2 UV irradiation
# Format: cell-based
compound,measurement,value
COc1cc(Br)c([N+](=O)[O-])nc1[N+](=O)[O-],inhibition (active/inactive call),Active
